The test system of this data set is NO. As to the kind of experiment: purified protein. Particulars: 40 μM F420H2, 2-500 μM hydroxylamine, 0.5 mM DTT, pH 7 phosphate, anaerobic, kcat in electrons transferred per subunit.

One may read the Km as the substrate concentration at which the rate is half of its maximum. Broadly, the kcat is the maximal rate divided by the concentration of active sites. For ANME2c-FsrII-6D (uncultured archaeon), the Km was determined as 11 ± 1 µM, the kcat turned out to be 2.17 s⁻¹ and the kcat/Km is listed as 12 ± 2 (NH2OH).

(Values after article PMC9295563, “A Reduced F420-Dependent Nitrite Reductase in an Anaerobic Methanotrophic Archaeon” (Journal of Bacteriology, 2022).)
